A short description of series [1]: Sequestering of acrolein from buffered solution at 37° C. (HPLC). The note with it: 500 μM acrolein, equimolar hydrazine, 30 minutes (Example 29).
The conditions of series [2]: marked (experimental) in column Calculated Log P; cited from earlier work.
A further series concerns mouse hepatocytes. The experiment in a line: Allyl alcohol-induced toxicity in isolated mouse hepatocytes (LDH leakage). Particulars: read-out: PC50 (concentration producing a 50% decrease in LDH leakage); @ 60 mins, 0.1 mM AA; N = 4, mean ± SD. In general terms: LDH leaks from cells whose membrane has failed.

Each structure is given as a SMILES string.

With `NNc1ccc([N+](=O)[O-])cc1[N+](=O)[O-]`, the “acrolein removed from solution” value in series [1] is “around 40%”. Further, the Log P (experimental) in series [2] is 1.46. Besides, in the series with mouse hepatocytes, the EC50 amounted to 21 µM.

These data come from patent US20060160848A1 (priority 2002, published 2006).
